# Paper PMC4740242 (Cell reports, 2016)
# Sequences of proteins named here, by UniProt entry; tags and fusion partners are left off. Residues count along the entry.
# UniProt P10721, 26-976 V559D/V654A: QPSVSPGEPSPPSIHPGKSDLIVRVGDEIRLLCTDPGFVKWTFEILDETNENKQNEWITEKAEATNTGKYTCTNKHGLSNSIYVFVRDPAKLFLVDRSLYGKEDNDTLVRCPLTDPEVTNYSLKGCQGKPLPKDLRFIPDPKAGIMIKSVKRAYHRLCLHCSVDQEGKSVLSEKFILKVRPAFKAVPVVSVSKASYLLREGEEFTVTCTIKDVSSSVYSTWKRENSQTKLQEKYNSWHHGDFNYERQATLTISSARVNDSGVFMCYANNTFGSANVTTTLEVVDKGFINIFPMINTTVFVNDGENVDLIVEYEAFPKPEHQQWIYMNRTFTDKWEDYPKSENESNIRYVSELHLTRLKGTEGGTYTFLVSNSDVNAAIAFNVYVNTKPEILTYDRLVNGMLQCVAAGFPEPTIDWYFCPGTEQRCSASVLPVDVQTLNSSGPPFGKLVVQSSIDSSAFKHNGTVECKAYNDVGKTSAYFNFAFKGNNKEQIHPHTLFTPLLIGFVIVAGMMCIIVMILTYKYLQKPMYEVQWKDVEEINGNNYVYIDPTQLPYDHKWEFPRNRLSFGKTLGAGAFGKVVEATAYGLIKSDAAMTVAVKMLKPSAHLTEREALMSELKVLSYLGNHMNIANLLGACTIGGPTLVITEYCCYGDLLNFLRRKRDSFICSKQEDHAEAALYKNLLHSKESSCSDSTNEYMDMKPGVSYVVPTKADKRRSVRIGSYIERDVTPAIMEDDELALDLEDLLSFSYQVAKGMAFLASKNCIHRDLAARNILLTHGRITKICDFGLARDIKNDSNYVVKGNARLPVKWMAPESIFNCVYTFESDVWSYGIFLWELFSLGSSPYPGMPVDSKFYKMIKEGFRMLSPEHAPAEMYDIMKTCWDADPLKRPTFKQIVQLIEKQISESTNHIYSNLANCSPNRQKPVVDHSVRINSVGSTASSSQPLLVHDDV
# Biological target: C-KIT V559D/V654A (Homo sapiens, UniProt P10721, V559D/V654A)
# Assay: HotSpot kinase assay, C-KIT V559D/V654A
# Type: biochemical
# Conditions: at 500 nM
smiles,measurement,value
Cc1ccc(NC(=O)c2ccc(CN3CCN(C)CC3)cc2)cc1Nc1nc(-c2cccnc2)cs1 [masitinib],kinase inhibition (in words),moderate kinase inhibition
